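Step 1: Grow cells in 96-well plates. Step 2: Expose to compound for 48 hours at 5 concentrations. Step 3: Interpolate endpoints linearly; if unreached, use highest concentration. TGI is the concentration that stops growth completely.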
Tested on: MDA-MB-468 breast
Test: DTP human tumour cell line panel, 48 h

Compound `O=Cc1ccc(N(CCCl)CCCl)cc1Cl` has a TGI of 62.6 nM.

Source: PubChem BioAssay (NCI)
